This is a selection: effects in other tests are not listed, and their absence says nothing.
Legend:
[1] = Half-life in culture medium was determined at 37 degrees Celsius in alpha MEM with 10% fetal calf-serum (FCS); conditions: cattle
[2] = Evaluated for inhibitory concentration against UV-4 cells under aerobic conditions with a compound exposure of 1 h
[3] = Half-life was determined in culture medium at 37 degrees Celsius in alpha MEM
[4] = Ratio = (aerobic IC50 / hypoxic IC50) determined against UV-4 cells with an 18 hr exposure
[5] = Evaluated for inhibitory concentration against UV-4 cells under aerobic conditions with a compound exposure of 18 h

Cc1cccc(N(CCCl)CCCl)c1
T1/2 [1]: 3.5 h | IC50 [2]: 1200 nM | T1/2 [3]: 1.42 h | Ratio [4]: 0.94 | IC50 [5]: 150 nM
